Laboratory results from patent US11484521B2, “Antidotes to cyanide poisoning” (dated 2022).
Where two headings read alike, the source gives them in different places.

What was measured:
[1] = test system: zebrafish exposed to 100 μM KCN; conditions: for cyanide antidote activity / EC100, dose that rescued 100% of zebrafish: challenge with 100 μM KCN, complex dissolved in DMSO; for cyanide antidote activity: doses 1-1000 μM
[2] = UV-VIS spectral assay of cyanide binding; conditions: 1 mM complex, 5 mM cyanide; 7 in PBS, 37 in water, 36 dissolved in DMSO and assayed in water
[3] = test system: pigs exposed to a lethal dose of cyanide; test: Swine cyanide model; conditions: 20 mg/kg IM, n=3
[4] = Reported acute toxicity in mice (LD50); conditions: LD50 ratio
[5] = test system: rabbits exposed to a lethal dose of cyanide; test: Rabbit lethal cyanide model, intramuscular antidote; conditions: HCP at t=40, DOS
[6] = test system: zebrafish exposed to 100 μM KCN; test: Zebrafish survival assay, rescue from 100 μM KCN (EC100); conditions: challenge with 100 μM KCN; complex dissolved in DMSO; doses 1-1000 μM

## cis-diamminechloro(dimethylsulfoxide)platinum(II)
[1]; listed as 36
  cyanide antidote activity: is a cyanide antidote
[2]
  reaction rate with cyanide: 0.367 AU/min

## transplatin
[1]
  cyanide antidote activity: equipotent antidotes

## cis-diamminedichloroplatinum(II)
[1]
  EC100, dose that rescued 100% of zebrafish: 125 µM
  cyanide antidote activity: equipotent antidotes
[2]
  reaction rate with cyanide: 0.021 AU/min

## [Cl][Pt]([Cl])([Cl])([Cl])([Cl])[Cl]
[3]
  survival to the endpoint of the study, 110 minutes after commencing cyanide infusion: all survived
[4]
  acute toxicity dose in mice relative to cisplatin: 20 fold
[5]
  cytochrome c oxidase redox state in muscle: plateaus after antidote injection

## satraplatin
[1]
  cyanide antidote activity: not a cyanide antidote

## carboplatin
[6]
  cyanide antidote activity: not a cyanide antidote

## hydroxocobalamin
[1]
  EC100, dose that rescued 100% of zebrafish: 100 µM

## Zeise's salt
[1]; 100 μM KCN, PBS versus DMSO solvation
  dose required in PBS relative to DMSO: 8 fold
